## Binding of CDR-mutated scFvs to a peptide of the spike HR2 region

Reference: Engelhart et al. 2022, doi:10.1038/s41597-022-01779-4. File: FLAb, binding data.

Binding partner: SARS-CoV-2 spike HR2 peptide, sequence PDVDLGDISGINAS.

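Phage display of a naive human antibody library on the peptide gave the parent. The library (AAYL51) carries one to three amino acid substitutions per variant, with no insertions or deletions. The assay is AlphaSeq: two haploid yeast populations carry antibody and antigen on their surface. Mating (16 h, 30 °C) was followed by selection of diploids and sequencing of their barcodes. The ratio of observed to expected reads was calibrated, replicate by replicate, on BCL2-family standards whose Kd was known from biolayer interferometry. The assay was run in three technical replicates.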

Parent: Ab-91, a human scFv built as VL, three GGGGS repeats, VH. Only the CDRs of the heavy chain vary.
VL: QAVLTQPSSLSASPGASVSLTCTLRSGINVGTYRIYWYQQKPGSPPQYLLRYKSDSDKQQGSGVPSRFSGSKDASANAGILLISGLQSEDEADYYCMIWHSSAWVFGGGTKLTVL
VH: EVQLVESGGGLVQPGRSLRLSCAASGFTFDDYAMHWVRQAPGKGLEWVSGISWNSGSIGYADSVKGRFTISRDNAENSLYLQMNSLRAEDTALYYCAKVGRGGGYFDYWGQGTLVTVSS

Each variant is given by its three heavy chain CDRs, as the data file delimits them; those of the parent are GFTFDDYAMH, GISWNSGSIGYADSVK, VGRGGGYFDY.
Scale: log10 of Kd in nM, estimated from mating counts; low values are strong binders.
"ND" means that the variant was in the library but no mating with the target was seen in that replicate; the authors take this as a sign of poor binding, and no number exists.
For reference, the parent read 1.86 as the reference entry and 0.88 as a member of this library.
Three control strains display no target. For library AAYL51, 21% of the pairings with them gave a signal, with a median of 4.54 and one signal in twenty below 3.26, so weak values seen in few replicates may be background. For each scFv, signals with the empty controls are counted beside the result, with their mean in brackets.

| CDR-H1 | CDR-H2 | CDR-H3 | log10 Kd, replicates | empty controls |
|---|---|---|---|---|
| GFTFLDYAMH | GTSWNSGSIGYADSVK | VGRGGDYFDY | ND / ND / ND | 1/9 (3.05) |
| GFTFDDSCMH | GIPWNSGSIGYADSVK | VGRGGGYFDY | ND / ND / ND | 0/9 |
| GSFFDHYAMH | GISWNSGSIGYADSVK | VGRGGGYFDY | 1.45 / 1.51 / 1.08 | 5/9 (5.01) |
| GFTFDDYAMH | WIHWNSGSIGYADSVK | VGRGGGYFCY | ND / ND / ND | 0/9 |
| GFTFDDYAMH | GSSWNSGSIGYADSVK | VGRGEGYFPY | 4.45 / 3.84 / ND | 6/9 (5.13) |
| GFTFDDYAMH | GISWNSESIGYADTYK | VGRGGGYFDY | ND / ND / ND | 0/9 |
| GNTFDDYAMH | GISWNSGSIGYADSVK | VGRGPLYFDY | ND / 6.06 / ND | 4/9 (4.26) |
| GFTFDDYHMH | GGSWNSGSITYADSVK | VGRGGGYFDY | 4.33 / 6.02 / ND | 3/9 (5.15) |
| QFTFDDYAMH | GISWNSGSIGYADSYK | WGRGGGYFDY | ND / ND / ND | 0/9 |
| GFTFDDYAMM | GISWNGGSIGYANSVK | VGRGGGYFDY | ND / ND / ND | 5/9 (4.48) |
| GFTFDDYCMH | GISWNSGEFGYADSVK | VGRGGGYFDY | 4.09 / 4.78 / ND | 4/9 (4.04) |
| GFTFDDYAMH | GISWNGGSIGYADSVK | QPRGGGYFDY | 1.82 / 1.84 / 1.29 | 5/9 (3.79) |
| GFTFDDYAMH | RISWNSGEIGYADHVK | VGRGGGYFDY | ND / ND / ND | 1/9 (3.04) |
| GFTWVDYAMH | GISWNSGSIGYADSVK | VGRGVGYFDY | 4.34 / 5.35 / ND | 5/9 (5.11) |
| GFTFDRYAMH | GNSWNSGSIGYADSVK | VGRGGGYFWY | 4.48 / ND / ND | 1/9 (4.09) |
| GFTHDDYAMH | GISWNSGSIGYAFKVK | VGRGGGYFDY | ND / ND / ND | 0/9 |
| GFTFDDYAMH | GISRNSGSIGYMDSVK | VGRGGGYFDK | 3.58 / 3.17 / 3.83 | 3/9 (4.51) |
| GFTFDDDAMH | GISWNEGSIGYADSVK | VGRGTGYFDY | 3.64 / 5.81 / ND | 2/9 (3.86) |
| GFTFDDYGMH | GIIWNSGSIGYADHVK | VGRGGGYFDY | 3.98 / 4.14 / ND | 0/9 |
| GFTFDDYIMH | GISWNSGSIGYADSVK | VGEGNGYFDY | 3.38 / ND / ND | 1/9 (4.75) |
| GFTFCDYAMH | YISWNSGSIGYADVVK | VGRGGGYFDY | ND / ND / ND | 0/9 |
| GFTFTDYAMA | GISWNSGSIGYADSVK | VGPGGGYFDY | 4.21 / 5.93 / 4.71 | 4/9 (5.12) |
| GFTFDDYAMH | GISWNSGSRGYADSVK | VCRGGGYFDY | 3.83 / 3.86 / ND | 1/9 (3.97) |
| GFTFYDYFMH | GISWDSGSIGYADSVK | VGRGGGYFDY | ND / ND / ND | 1/9 (4.21) |
| GFTFDDYAMH | GQSWNSGSIGYADSVK | VGRGGGYHDY | ND / 6.12 / ND | 1/9 (4.53) |
| GFTFDDYALH | GISWNSGSIGYADSVP | VGRGEGYFDY | 4.44 / ND / ND | 4/9 (4.73) |
| GFTEDDYAMH | GISWNSHSIGYADSVK | VGRGGDYFDY | ND / 5.23 / ND | 0/9 |
| GFTFVDYLMH | GISWNSGSIGYADSVK | VVRGGGYFDY | 3.31 / ND / ND | 1/9 (4.32) |
| GFTFDDYVDH | GISWNSGSIGYADSVK | VGRGGGYFQY | ND / ND / 4.46 | 1/9 (4.50) |
| HFTFDDYAMH | GISWNSGPVGYADSVK | VGRGGGYFDY | ND / ND / ND | 3/9 (3.86) |
| GFTFDDYAMH | GISWNSGSIGYRDLVK | VLRGGGYFDY | ND / ND / ND | 0/9 |
| GFAFDDYAMH | GIVWNSGSIGYADSVK | VGRKGGYFDY | ND / ND / ND | 2/9 (4.67) |
| HFEFDDYAMH | GISWNSGSIGYADSVK | VGRKGGYFDY | ND / ND / ND | 2/9 (3.46) |
| GFTFDDYAMH | GISWNSGSIDYADSVT | VGRGGGYFDY | 5.84 / 5.98 / ND | 3/9 (4.49) |
| GFTFDDYAMH | GISWNSYSKGYADSVK | MGRGGGYFDY | 1.00 / 1.12 / 0.56 | 6/9 (4.92) |

Excerpt, the first 5 entries:

| CDR-H1 | CDR-H2 | CDR-H3 | log10 Kd, replicates | empty controls |
|---|---|---|---|---|
| GFTFLDYAMH | GTSWNSGSIGYADSVK | VGRGGDYFDY | ND / ND / ND | 1/9 (3.05) |
| GFTFDDSCMH | GIPWNSGSIGYADSVK | VGRGGGYFDY | ND / ND / ND | 0/9 |
| GSFFDHYAMH | GISWNSGSIGYADSVK | VGRGGGYFDY | 1.45 / 1.51 / 1.08 | 5/9 (5.01) |
| GFTFDDYAMH | WIHWNSGSIGYADSVK | VGRGGGYFCY | ND / ND / ND | 0/9 |
| GFTFDDYAMH | GSSWNSGSIGYADSVK | VGRGEGYFPY | 4.45 / 3.84 / ND | 6/9 (5.13) |